Experimental data taken from PubChem BioAssay AID1376 (SRMLSC, 2008).
The list shows a part of the results, in another mix than the full data. Potency and affinity values are given separately. Some of these compounds have results that are not shown, active ones among them. Active and inactive are the calls of the source. No stated cut-off is given here; in the data, active means inhibition above about 13%; inconclusive means no clear call, values can overlap the other calls; inactive means below that.

Sequences of proteins named here, by UniProt entry; tags and fusion partners are left off.
UniProt P9WMN3, whole entry: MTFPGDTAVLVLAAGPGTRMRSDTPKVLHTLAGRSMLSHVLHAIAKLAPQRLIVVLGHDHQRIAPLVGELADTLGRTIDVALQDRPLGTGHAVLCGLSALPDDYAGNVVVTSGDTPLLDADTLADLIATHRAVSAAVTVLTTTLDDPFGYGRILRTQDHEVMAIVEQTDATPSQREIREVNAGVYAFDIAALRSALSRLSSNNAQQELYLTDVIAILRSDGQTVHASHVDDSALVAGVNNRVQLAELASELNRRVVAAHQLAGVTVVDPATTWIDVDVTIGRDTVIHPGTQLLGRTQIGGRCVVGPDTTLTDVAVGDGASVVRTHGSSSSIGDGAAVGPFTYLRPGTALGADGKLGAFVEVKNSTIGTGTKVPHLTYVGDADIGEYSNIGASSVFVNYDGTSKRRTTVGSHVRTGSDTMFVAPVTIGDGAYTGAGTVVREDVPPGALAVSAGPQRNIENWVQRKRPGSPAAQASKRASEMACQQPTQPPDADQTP

Biological target: Bifunctional protein GlmU (Mycobacterium tuberculosis (strain ATCC 25618 / H37Rv)) (UniProt P9WMN3)
Assay: inhibition of mycobacterial GlmU enzyme – biochemical, glucosamine-1-phosphate acetyltransferase (AID 1376);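 further: 0% = complete reaction with vehicle and 100% = reaction without substrate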
Settings: M. tuberculosis GlmU acetyltransferase enzyme assay; stronger effect = higher value;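 tested at 30 µM in the primary screen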

SMILES	inhibition
COc1cccc(C(=O)NCC2(N3CCCCC3)CCCCC2)c1	inactive: -1.13%
O=C(OC1CN2CCC1CC2)C(CO)(c1ccccc1)c1ccccc1 (stereo not given)	inactive: 7.02%
CN(C)c1cccc(C(=O)NCC2(N(C)C)CCCCC2)c1	inactive: 0.79%
O=C(NCC1(N2CCCCC2)CCCCC1)c1cc([N+](=O)[O-])ccc1Cl	inactive: -4.29%
CCN(CC)CC(C)C(C)OC(=O)C(O)(c1ccccc1)c1ccccc1 (stereo not given)	inactive: 1.21%
CC(C)N1C(=O)CC2(CCN(CCOC(=O)C(O)(c3ccccc3)c3ccccc3)CC2)C1=O	inactive: -4.42%
CN(C)C1CCCC1OC(=O)C(O)(c1ccccc1)c1ccccc1 (stereo not given)	inactive: -2.65%
Cc1ccccc1C(=O)NCC1(N2CCCCC2)CCCCC1	inactive: -4.25%
C=CCN1CCN(CCOC(=O)C(O)(c2ccccc2)c2ccccc2)CC1	inactive: 6.17%
CCN1CCCC(OC(=O)C2(O)c3ccccc3C=Cc3ccccc32)C1 (stereo not given)	inactive: -9.01%
